How the values were obtained:
[1] = tested on: retinal neovascularization; conditions: mice; cited from earlier work
human PTPN1 = human PTPN1 (Homo sapiens, UniProt P18031); assay: Human PTPN1 Biochemical Assay; conditions: read-out: PTP1B IC50; human PTPN1 (1-435), DiFMUP substrate, 30 min preincubation, 1 hour at room temperature, pH 7.4
Method: Human PTPN1 Biochemical Assay
(§1) For this assay, test compounds were dissolved in DMSO, and 10-point serial 3-fold dilution series in DMSO were prepared in Echo Qualified 384-well Polypropylene Microplates (Labcyte, San Jose, CA) (top concentration 50 μM). Assay plates (384-well low volume black plates; Corning #3820, Corning, NY) were prepared by dispensing 50 nL of test compounds, and DMSO (for high and low controls) by ECHO acoustic dispenser (Labcyte, San Jose CA). This was followed by addition of 5 μL of 6 nM human PTPN1 (1-435) solution (prepared in the assay buffer, 50 mM Tris pH 7.4, 150 mM NaCl, 0.01% Tween20, 0.5 mM dithiothreitol) to all wells except the low control. 5 μl of assay buffer was added into the low control. The plate was incubated for 30 minutes at room temperature. Subsequently, 5 μl of 100 μM DiFMUP (6,8-difluoro-4-methylumbelliferyl phosphate) solution (prepared in assay buffer from 10 mM stock in DMSO) was added to the assay plate, and incubated for 1 hour at room temperature. For detection, assay plates were read on SpectraMax Microplate Reader (Molecular Devices), with Excitation wavelength=360 nm and Emission wavelength=460 nm. Test compound effects were normalized to the window defined by the controls. DMSO/buffer, and DMSO/150 pM human PTPN1. Calculated % effects were fit using a 4-parameter algorithm, and EC50 was reported.

By UniProt entry, the sequences of proteins in these tests, tags left out. Chains listed by the source or under a name are the forms on record and can include a tag or linker. Residues count along the entry.
UniProt P18031, whole entry: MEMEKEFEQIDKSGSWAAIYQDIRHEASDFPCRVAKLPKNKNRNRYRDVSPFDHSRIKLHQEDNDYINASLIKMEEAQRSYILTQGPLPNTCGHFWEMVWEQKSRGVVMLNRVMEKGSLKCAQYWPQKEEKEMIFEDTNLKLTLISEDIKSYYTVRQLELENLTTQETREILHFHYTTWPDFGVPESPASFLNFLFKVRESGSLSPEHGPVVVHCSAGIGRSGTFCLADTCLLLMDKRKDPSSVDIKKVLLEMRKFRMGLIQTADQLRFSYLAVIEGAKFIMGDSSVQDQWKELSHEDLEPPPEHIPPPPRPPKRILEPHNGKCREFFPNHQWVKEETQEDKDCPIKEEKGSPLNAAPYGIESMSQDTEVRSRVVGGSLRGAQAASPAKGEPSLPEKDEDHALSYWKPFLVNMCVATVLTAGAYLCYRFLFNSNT
UniProt P17706, 1-387 with tags or gaps: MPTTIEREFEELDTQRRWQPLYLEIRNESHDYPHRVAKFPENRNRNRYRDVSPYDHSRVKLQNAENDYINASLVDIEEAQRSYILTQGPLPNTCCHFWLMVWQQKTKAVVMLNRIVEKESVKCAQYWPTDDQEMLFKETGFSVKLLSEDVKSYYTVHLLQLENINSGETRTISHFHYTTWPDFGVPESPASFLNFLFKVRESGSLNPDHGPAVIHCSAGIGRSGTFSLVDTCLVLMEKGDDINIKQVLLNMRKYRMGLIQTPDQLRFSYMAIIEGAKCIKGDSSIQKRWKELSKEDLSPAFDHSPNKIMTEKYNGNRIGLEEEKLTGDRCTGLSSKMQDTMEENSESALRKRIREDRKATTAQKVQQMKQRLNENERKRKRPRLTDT

human PTPN2 = human PTPN2 (Homo sapiens, UniProt P17706); assay: Human PTPN2 Biochemical Assay; conditions: read-out: PTPN2 IC50; human PTPN2 (1-387), DiFMUP substrate, 30 min preincubation, 1 hour at room temperature, pH 7.4
Method: Human PTPN2 Biochemical Assay
as §1, with “of 0.2” for “of 6”, “human PTPN2 (1-387)” for “human PTPN1 (1-435)”, “the controls,” for “the controls.”, “and DMSO/50” for “and DMSO/150”, “human PTPN2.” for “human PTPN1.”

xenografts = conditions: SCID-beige mice; cited from earlier work
[2] = tested on: ErbB2-driven mammary tumors; conditions: transgenic mice; cited from earlier work

| Structure (SMILES) | development of retinal neovascularization [1] | IC50 (human PTPN1) | IC50 (human PTPN2) | growth of xenografts (xenografts) | metastasis of ErbB2-driven mammary tumors [2] |
| --- | --- | --- | --- | --- | --- |
| CN(CCOc1ccc(CC2SC(=O)NC2=O)cc1)c1ccccn1 (centres unmarked) | inhibit the development of retinal neovascularization | – | – | – | – |
| O=P(O)(O)C(F)(F)c1cc2nc(OCC3CC3(F)F)ncc2cc1Br (centres unmarked) | – | 598 nM | 1030 nM | – | – |
| O=P(O)(O)C(F)(F)c1cc2nc(OCCCC(F)(F)F)ncc2cc1Br | – | 169 nM | 189 nM | – | – |
| O=P(O)(O)C(F)(F)c1cc2nc(OCCC3CCCS3(=O)=O)ncc2cc1Br (centres unmarked) | – | 204 nM | 223 nM | – | – |
| O=P(O)(O)C(F)(F)c1cc2nc(NC[C@@H]3CC3(F)F)ncc2cc1Br | – | 756 nM | 802 nM | – | – |
| O=P(O)(O)C(F)(F)c1cc2nc(NC[C@H]3CC3(F)F)ncc2cc1Br | – | 1010 nM | 1010 nM | – | – |
| CC(F)(F)CCCNc1ncc2cc(Br)c(C(F)(F)P(=O)(O)O)cc2n1 | – | 401 nM | 505 nM | – | – |
| Cc1c(C)c2c(c(C)c1O)CCC(C)(COc1ccc(CC3SC(=O)NC3=O)cc1)O2 (centres unmarked) | inhibit the development of retinal neovascularization | – | – | – | – |
| CC(C)(O)CCOc1ncc2cc(Br)c(C(F)(F)P(=O)(O)O)cc2n1 | – | 162 nM | 82 nM | – | – |
| O=P(O)(O)C(F)(F)c1cc2nc(NCCCC(F)(F)F)ncc2cc1Br | – | 179 nM | 225 nM | – | – |
| CS(=O)(=O)CCCNc1ncc2cc(Br)c(C(F)(F)P(=O)(O)O)cc2n1 | – | 1120 nM | 1610 nM | – | – |
| O=C(Nc1ccon1)c1ncc2cc(Br)c(C(F)(F)P(=O)(O)O)cc2n1 | – | 117 nM | 155 nM | – | – |
| CC(C)(O)CCNc1ncc2cc(Br)c(C(F)(F)P(=O)(O)O)cc2n1 | – | 180 nM | 245 nM | – | – |
| N#Cc1cc2cnc(NCCCS(N)(=O)=O)nc2cc1C(F)(F)P(=O)(O)O | – | 571 nM | 727 nM | – | – |
| O=P(O)(O)C(F)(F)c1cc2nc(NCC[C@H]3CCCS3(=O)=O)ncc2cc1Br | – | 755 nM | 975 nM | – | – |
| NS(=O)(=O)CCCOc1ncc2cc(Br)c(C(F)(F)P(=O)(O)O)cc2n1 | – | 250 nM | 178 nM | – | – |
| CCOc1ncc2cc(Br)c(C(F)(F)P(=O)(O)O)cc2n1 | – | 212 nM | 265 nM | – | – |
| CS(=O)(=O)CCCOc1ncc2cc(Br)c(C(F)(F)P(=O)(O)O)cc2n1 | – | – | 429 nM | – | – |
| NS(=O)(=O)CCCNc1ncc2cc(Br)c(C(F)(F)P(=O)(O)O)cc2n1 | – | 613 nM | 686 nM | – | – |
| CC(F)(F)CCCOc1ncc2cc(Br)c(C(F)(F)P(=O)(O)O)cc2n1 | – | 121 nM | 167 nM | – | – |
| N#Cc1cc2cnc(NCCCC(F)(F)F)nc2cc1C(F)(F)P(=O)(O)O | – | 186 nM | 296 nM | – | – |
| CC(C)[C@@H](CC[C@@H](C)[C@H]1CC[C@H]2[C@@H]3[C@H](O)C[C@H]4C[C@@H](NCCCNCCCCNCCCN)CC[C@]4(C)[C@H]3CC[C@]12C)OS(=O)(=O)O | – | – | – | attenuates the growth of xenografts | the metastasis of ErbB2-driven mammary tumors |
| O=P(O)(O)C(F)(F)c1cc2nc(OCC[C@@H]3CCCS3(=O)=O)ncc2cc1Br | – | 308 nM | 403 nM | – | – |
| O=P(O)(O)C(F)(F)c1cc2nc(NCC[C@@H]3CCCS3(=O)=O)ncc2cc1Br | – | 633 nM | 702 nM | – | – |
| O=P(O)(O)C(F)(F)c1cc2nc(OCC3CC3(F)F)ncc2cc1Br (single isomer, unassigned) | – | 428 nM | 467 nM | – | – |

Reference: patent US20260384459A1, “SUBSTITUTED QUINAZOLINE DERIVATIVES AND METHODS OF USE THEREOF” (published 2026)
